{"source": "paper PMC9960778", "about": "“Polymer-Antimicrobial Peptide Constructs with Tailored Drug-Release Behavior” (Pharmaceutics, 2023)", "assay": "Spontaneous hydrolysis and release of PEP in PBS buffers", "assay_type": "physicochemical", "conditions": "HPLC", "description": "The molecular weights and dispersity (Ð) of the polymer precursors were determined by size-exclusion chromatography (SEC) on an HPLC system (Shimadzu) equipped with a refractive index, UV, and multiangle light scattering DAWN 8 EOS (Wyatt Technology Corp., Santa Barbara, CA) detectors using a TSK 3000 SWXL column (Tosoh Bioscience, Tokyo, Japan) and 80% MeOH:20% 0.3 M acetate buffer pH 6.5 at a flow rate of 0.5 mL‧min^−1. The calculation of molecular weights from the light scattering detector was based on the known injected mass assuming 100% mass recovery and RI detector with the refractive index increment dn/dc equal to 0.167 mL‧g^−1. The PEP release was also measured by SEC using Superose 12 10/300 GL column (Cytiva, Marlborough, MA, USA) and 0.2M Phosphate-buffered saline (PBS, pH 7.4) as a mobile phase at a flow rate 0.7 mL‧min^−1.\nThe enzymatic activity of cathepsin B was probed immediately before the release measurements as described previously. The enzymolysis was monitored by HPLC and the rate of PEP release was calculated from the area of the corresponding polymer peaks from the fluorescent detector (excitation 280 nm, emission 350 nm of Trp in PEP). The spontaneous hydrolysis and release of PEP were measured by HPLC in two different PBS buffers to mimic the bloodstream, pH 7.4 and pH 5.5, at 37 °C."}
{"substance": "p(HPMA-co-Ma-β-Ala-DBCO-azide-PEP) [P-PEP, non-cleavable polymer-PEP construct, control system]", "values": [{"measurement": "Stability / PEP release in PBS pH 7.4", "setting": "PBS buffer pH 7.4, 37 °C, model conditions mimicking the bloodstream", "value": "no PEP liberation"}, {"measurement": "Stability / PEP release at pH 5.0", "setting": "PBS pH 5.0 (method says pH 5.5), 37 °C", "value": "no PEP liberation"}]}
